Source: patent US6987127B2, “Regulation of NAD(P)H oxidase growth and transcription in melanoma cells” (Charlotte-Mecklenburg Hospital Authority, priority 2001, dated 2006)

What was measured:
[1] = test system: membrane NAD(P)H oxidase of M1619 melanoma cells; experiment: SOD-inhibitable lucigenin chemiluminescence (O2- generation) by 100,000 g plasma membrane fraction; format: biochemical, human; details: 50 μmol/L, 15 μg membrane protein, 100 μmol/L NADPH, no cytosol, 5 minutes
M1619 melanoma cells = details: pretreatment 15 minutes, 50 μmol/L

SMILES	Lucigenin chemiluminescence of membranes + NADPH [1]	Median fluorescence (DCFH oxidation to DCF) (M1619 melanoma cells; untreated 685)	Mean fluorescence (DCFH oxidation to DCF) (M1619 melanoma cells; untreated 754)
O=c1oc2ccccc2c(O)c1Cc1c(O)c2ccccc2oc1=O [dicumarol]	reduced	–	–
c1ccc2c(c1)[I+]c1ccccc1-2 [DPI, diphenylene iodonium]	significantly inhibited	355	408
